Results reported in patent publication US12152047B2, “Anti-cancer gold compounds” (Royal Melbourne Institute of Technology, priority 2019, dated 2024).

Assays:
Type in all cases: cell-based
Settings in all cases: 48 h incubation, mean ± SD of three experiments
[1] = test system: HeK-293 (normal) human embryonic kidney cells; experiment: MTT assay (in vitro cytotoxicity), HeK-293
Protocol: (§1) For all the assays, unless otherwise mentioned, stock solutions of the metal compounds were freshly prepared in DMSO (10 mM) and 1% DMSO in complete medium was used as a control.
(§2) The MTT [3-(4,5-dimethylthiazol-2-yl)-2,5-diphenyltetrazolium bromide] assay is based on the conversion of a yellow coloured MTT solution to purple formazan crystals by the active mitochondrial dehydrogenases of viable cells. Thus, the intensity of the produced purple colour is proportional to the number of viable cells. The cells were seeded in 96 well plates depending on cellular doubling time and were treated with solutions of the metal compounds (100 μM, 10 μm, 1 μM, 0.1 μM, 0.01 μM) after overnight incubation. The cells were further incubated for 48 h and the medium containing the test compounds was removed before addition of 100 μL MTT solution (5 mg/mL) in serum-free medium. After 4 h incubation in the dark at 37° C., the excess MTT solution was removed from the wells and 100 μL of DMSO was added to each well to solubilise the formed formazan crystals. The absorbance of formazan solution from each well was recorded using a Spectramax micro titre plate reader at 570 and 630 nm. […] For all the assays, stock solutions of gold compounds were prepared in DMSO (10 mM) and the final treatment concentrations (100 μM-0.01 μM) were made in complete growth medium.

[2] = test system: HT-1080 (bone, fibrosarcoma) cancer cells; experiment: MTT assay (in vitro cytotoxicity), HT-1080
Protocol: as §1, §2

[3] = test system: PC3 (prostate) cancer cells; experiment: MTT assay (in vitro cytotoxicity), PC3
Protocol: as §1, §2

A549 (lung) cancer cells = experiment: MTT assay (in vitro cytotoxicity), A549
Protocol: as §1, §2

[4] = test system: HeLa (cervical) cancer cells; experiment: MTT assay (in vitro cytotoxicity), HeLa
Protocol: as §1, §2

## [Au(PPh2py){κC-2-C6H4P(S)Ph2}] [Compound 4]
[1]
  IC50: 0.95 ± 0.2 µM
[2]
  IC50: 6.65 ± 0.35 µM
[3]
  IC50: 0.61 ± 0.08 µM
A549 (lung) cancer cells
  IC50: > 50 µM
[4]
  IC50: 1.35 ± 0.23 µM

## [Au{PPh2(C6H4-3-SO3Na)}{κC-2-C6H4P(S)Ph2}] [Compound 3]
[2]
  IC50: 3.09 ± 0.16 µM
[3]
  IC50: 5.22 ± 0.22 µM
A549 (lung) cancer cells
  IC50: > 50 µM
[4]
  IC50: 9.13 ± 0.82 µM
